Experimental data as given in patent US7718764B2, “Biologically active peptide VAPEEHPTLLTEAPLNPK derivatives” (CMS Peptides Patent Holding Company Limited, priority 2004, dated 2010).

Assays:
mice T-lymphocyte = assay: Mice T-lymphocyte transformation induced by ConA in vitro (spleen cells, MTT); assay type: cell-based, BALB/c mice; details: for OD: Table 3, ConA 5 μg/ml, 68 hrs
Procedure: The spleens from healthy mice were isolated aseptically and manually dispersed in 10% FBS RPMI-1640 solution using an injection needle. The dispersed cell suspension was further sieved through a 100-gauge 150 μm diameter stainless steel sieve. The spleen cell suspension was adjusted to a density of 4×10^6/ml and was aliquoted onto 96-well cell culture plates at 100 μl/well. Peptides were dissolved in plain RPMI-1640. The design of the groupings was as given below.
Peptide group: 100 μl working peptide solution+75 μl spleen cell suspension+25 μl ConA working solution.
ConA control group: 100 μl RPMI-1640+75 μl spleen cell suspension+25 μl ConA working solution.
Negative control group: 125 μl RPMI-1640+75 μl spleen cell suspension.
The final concentration of ConA in the well was 5 μg/ml. The final concentrations of peptides in the well were 80 μg/ml, 16 μg/ml, 3.2 μg/ml, 0.64 μg/ml, and 0.128 μg/ml. Each peptide group contained three parallel wells, and eight or twelve wells for the control groups. The cells were incubated for 68 hrs at 37° C., 5% CO2. MTT method was used to obtain a reading of OD570 nm of each well referenced at 630 nm on an ELISA reader.

S180 sarcoma cells = assay: Growth of KM mice-transplanted S180 sarcoma cells in vivo; set-up: unit not given here; details: Table 12; for Sarcoma volume: V=(1/6)πABC, saline 1.20 ± 0.28; for Sarcoma weight: saline 1.87 ± 0.52
Procedure: S180 sarcoma cells were transplanted intraperitoneally into KM mice for 6-8 days and the ascites aseptically collected. The cell concentration was adjusted to 1×10^7 per ml with 10% FBS RPMI-1640, and 0.2 ml cell suspension was injected through the armpit into each KM mice for developing the sarcoma bearing mice model. […] Intraperitoneal injection of test substances started on the day immediately after tumor transplantation and continued once per day for 20 consecutive days.
On the day after the last test substance administration, the sarcomas were removed from the mice and weighed. The diameters of each sarcoma on the three planes (A, B, C) were measured by a vernier caliper. The volume of the sarcoma was calculated by the formula: V=(⅙)πABC.

## CMS-010.32 (VA)
Mice T-lymphocyte; peptide 0.128 μg/ml, ConA control 0.358 ± 0.028
  OD: 0.306 ± 0.033
Mice T-lymphocyte; peptide 0.64 μg/ml, ConA control 0.358 ± 0.028
  OD: 0.321 ± 0.048
Mice T-lymphocyte; peptide 3.2 μg/ml, ConA control 0.358 ± 0.028
  OD: 0.309 ± 0.030
Mice T-lymphocyte; peptide 16 μg/ml, ConA control 0.358 ± 0.028
  OD: 0.273 ± 0.023
Mice T-lymphocyte; peptide 80 μg/ml, ConA control 0.358 ± 0.028, negative control 0.108 ± 0.012
  OD: 0.276 ± 0.034
Mice T-lymphocyte; at suitable concentrations, vs ConA positive control P<0.05
  Effect on mice T-lymphocyte transformation induced by ConA in vitro: suppress
S180 sarcoma cells; 250 μg/kg/day
  Sarcoma volume: 0.25 ± 0.14*^@
  Sarcoma weight: 0.38 ± 0.24*^@
S180 sarcoma cells; 500 μg/kg/day
  Sarcoma volume: 0.40 ± 0.31
  Sarcoma weight: 0.41 ± 0.35*^@

Marks after values point to notes of the source that are not given here.
